Source: patent US8809010B2, “Method for prophylactic treatment of alzheimer's disease using inhibitors of glutaminyl cyclase and glutamate cyclases” (Probiodrug AG, priority 2003, dated 2014)

Protein sequences, listed by entry. Tags and fused reporters are not part of them. Residues count along the entry.
UniProt Q16769, 29-361: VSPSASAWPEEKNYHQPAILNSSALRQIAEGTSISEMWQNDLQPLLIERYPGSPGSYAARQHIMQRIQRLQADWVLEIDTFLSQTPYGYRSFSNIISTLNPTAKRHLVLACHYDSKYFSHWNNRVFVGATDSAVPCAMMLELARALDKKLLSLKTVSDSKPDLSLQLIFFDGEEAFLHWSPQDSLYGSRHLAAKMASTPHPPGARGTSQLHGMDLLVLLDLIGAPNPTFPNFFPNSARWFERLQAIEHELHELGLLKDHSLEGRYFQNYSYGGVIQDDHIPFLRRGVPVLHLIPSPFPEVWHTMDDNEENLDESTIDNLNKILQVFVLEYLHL

Tests used:
human QC = biological target: T1, human QC (Homo sapiens, UniProt Q16769); assay: Continuous spectrophotometric QC assay (glutamate dehydrogenase coupled), substrate kinetics; format: biochemical; settings: for substrate inhibition;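 further: initial rates read on a microplate reader at 30 °C, with enzyme activity quantified against an ammonia calibration curve under the same assay conditions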
T1 construct: The cDNA of the mature QC starting with codon 38 was fused in frame with the plasmid encoded 6× histidine tag; 6xHis; made in house; host or cells: Pichia pastoris X33 (pPICZαB, secreted); also E. coli M15 (pQE-31)

[1] = Aβ aggregation assay with flow cytometry; format: physicochemical; settings: for fibril formation: up to 24 h
Description: At different times, samples were removed, diluted to 10 nM (based on the initial concentration of the monomer), and analyzed by flow cytometry. […] Fibril formation from monomeric pGlu-Aβ(3-42) was finished already after 2-3 h of incubation, implying an exceptionally high tendency to aggregation (FIG. 24-6A). The results were verified for Aβ(1-42) and pGlu-Aβ(3-42) by another set of experiments using unmodified Aβ peptides and an incubation with a fluorescence-labeled antibody (clone 4G8, Chemicon, Temecula, Calif.) prior to analysis by flow cytometry. As observed with the labeled peptides, fibril formation was virtually finished in the case of pGlu-Aβ(3-42) after 1 h of incubation (FIG. 24-6B). During time, only minor fibril formation was detected for Aβ(1-42). After 24 h, however, fibril concentration appeared to be the same as in case of pGlu-Aβ(3-42) (FIG. 24-6).
Seedless Aβ peptides were diluted to 10 μM (final total peptide concentration) into 50 mM sodium acetate, pH 5.5 containing 2 mM DTT and 100 mM NaCl and incubated at 37° C. without shaking. For fibril formation analysis, the peptides were either used as a mixture of unlabeled peptide (80%) and the respective fluorescence labeled peptide (20%) or as unlabeled peptides alone. […] In order to characterize the progress of the reaction, aliquots were removed at the indicated times, diluted to 10 nM into PBS-T (0.05% Tween-20) and analyzed. For reactions containing unlabeled peptides only, prior to flow cytometry aliquots were diluted to 5 nM into PBS-T and incubated with fluorescence labeled antibody 4G8 (Chemicon, Tececula, Calif.) at 1 nM for 1 h at 4° C.
To ensure identical conditions for all measurements, all samples were measured in TruCount Tubes (BD Biosciences) and analysis was stopped after 20,000 beads were counted. Counts were transferred into ANSMS for evaluation (Alzheimer normalized specific measurement signal: event counts from flow cytometry analysis normalized to the size of the particles, i.e. to a mean size of FS Log=250). Since there is a correlation between particle size and intensity of the fluorescence signal, it was possible to discriminate between smaller oligomeric and larger fibrillar structures in a single experiment (FIG. 25-2).

Row | Molecule | Ki* (mM) (human QC) | fibril formation ([1]; 10 μM peptide) | time until fibril formation finished ([1]; 10 μM peptide, 20% Alexa Fluor 488 labeled) | time until fibril formation virtually finished ([1]; unmodified peptide, labeled 4G8 antibody)
1 | NC(=O)CC[C@H](N)C(=O)NCC(=O)O [H-Gln-Gly-OH] | n.i. | – | – | –
2 | Aβ(3-42): SEQ ID NO: 22 | – | fibril formation already after a few hours | – | –
3 | pGlu-Aβ(3-42): N-terminally pyroglutamate-modified Aβ(3-42) | – | fibril formation already after a few hours | 2 to 3 h | 1 h
